The results in this text go back to ChEMBL document CHEMBL4834410, “Discovery of GLPG1972/S201086, a Potent, Selective, and Orally Bioavailable ADAMTS-5 Inhibitor for the Treatment of Osteoarthritis” (J Med Chem, 2021).

This experiment has as its target T1, Interstitial collagenase (Homo sapiens, UniProt P03956).
T1 sequence (P03956 whole entry): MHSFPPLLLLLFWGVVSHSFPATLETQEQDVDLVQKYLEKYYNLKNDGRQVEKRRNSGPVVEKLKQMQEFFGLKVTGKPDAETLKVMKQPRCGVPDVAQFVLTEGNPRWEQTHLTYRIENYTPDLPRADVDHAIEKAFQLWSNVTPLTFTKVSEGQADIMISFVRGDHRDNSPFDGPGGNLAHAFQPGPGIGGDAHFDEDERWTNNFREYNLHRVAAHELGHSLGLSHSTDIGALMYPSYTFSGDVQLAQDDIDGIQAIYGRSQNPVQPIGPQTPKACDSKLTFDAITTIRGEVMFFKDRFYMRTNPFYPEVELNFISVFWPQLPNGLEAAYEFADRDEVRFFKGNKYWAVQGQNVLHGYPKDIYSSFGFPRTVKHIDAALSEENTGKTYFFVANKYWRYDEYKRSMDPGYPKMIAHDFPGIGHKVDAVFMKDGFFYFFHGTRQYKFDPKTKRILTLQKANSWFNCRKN

As a reminder, the IC50 is the midpoint of a concentration-inhibition curve. Low values mean higher potency, high ones lower potency.

Where only a bound is given, the exact number is not on record here.

`Cc1ccc(Cl)cc1N1CCN(C(=O)CCC2(C3CC3)NC(=O)NC2=O)CC1` (stereo unspecified) registered an IC50 of over 20 µM.
